Columns and labels:
[1] = target: Cannabinoid receptor 2 (Homo sapiens) (UniProt P34972); experiment: Agonist activity at human CB2 receptor expressed in CHO-RD-HGA16 cells at 10 uM after 15 mins by FLIPR assay relative to CP55940; type: cell-based
Outline: (§1)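 Stably transfected CHO-RD-HGA16 cells (human CB1, or CB2 for line 2) seeded the day before (CB1 25,000, CB2 30,000 cells/well), cultured overnight at 37°C, 5% CO2. Loaded 45 min at 37°C with Calcium 5 dye in HBSS/20 mM HEPES/2.5 mM probenecid, pH 7.4.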

The chains behind the UniProt entries cited, without tags or fusion partners.
UniProt P34972, whole entry: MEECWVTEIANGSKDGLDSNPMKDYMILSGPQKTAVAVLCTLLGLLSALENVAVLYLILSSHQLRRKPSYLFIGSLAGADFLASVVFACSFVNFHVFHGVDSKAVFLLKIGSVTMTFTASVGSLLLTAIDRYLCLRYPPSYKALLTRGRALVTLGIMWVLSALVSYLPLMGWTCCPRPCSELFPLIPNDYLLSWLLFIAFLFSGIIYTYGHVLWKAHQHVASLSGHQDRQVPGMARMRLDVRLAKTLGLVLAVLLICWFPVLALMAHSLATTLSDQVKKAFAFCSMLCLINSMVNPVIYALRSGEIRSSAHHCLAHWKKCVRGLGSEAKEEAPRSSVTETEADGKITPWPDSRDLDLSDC
UniProt P21554, whole entry: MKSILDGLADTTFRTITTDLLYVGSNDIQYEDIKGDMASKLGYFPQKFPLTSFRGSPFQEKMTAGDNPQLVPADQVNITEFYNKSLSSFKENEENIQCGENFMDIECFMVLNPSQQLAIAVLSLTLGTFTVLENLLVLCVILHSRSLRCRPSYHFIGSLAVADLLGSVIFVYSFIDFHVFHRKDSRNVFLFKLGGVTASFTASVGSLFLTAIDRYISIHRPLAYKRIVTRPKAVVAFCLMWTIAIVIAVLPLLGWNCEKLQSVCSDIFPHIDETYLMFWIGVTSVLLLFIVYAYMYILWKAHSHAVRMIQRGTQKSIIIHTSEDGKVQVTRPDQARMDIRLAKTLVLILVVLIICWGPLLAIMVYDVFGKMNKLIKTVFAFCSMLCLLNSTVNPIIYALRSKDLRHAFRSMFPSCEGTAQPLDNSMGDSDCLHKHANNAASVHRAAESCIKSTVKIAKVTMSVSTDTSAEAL

Cannabinoid receptor 1 = Cannabinoid receptor 1 (Homo sapiens, UniProt P21554); experiment: Agonist activity at human CB1 receptor expressed in CHO-RD-HGA16 cells at 10 uM after 15 mins by FLIPR assay relative to CP55940; type: cell-based; outline: as §1

- Activity [1]: < 30%
- Activity (Cannabinoid receptor 1): < 30%
Structure (SMILES): CCc1c(C(=O)NCCc2cccc(N(C)C)c2)[nH]c2ccc(Cl)cc12

— ChEMBL document CHEMBL3399946, “Structure-activity relationships of substituted 1H-indole-2-carboxamides as CB1 receptor allosteric modulators” (Bioorg Med Chem, 2015)
